# scFv variants of Ab-95 (light chain) against a SARS-CoV-2 spike peptide

The target is the same throughout: PDVDLGDISGINAS, from the HR2 region of SARS-CoV-2 spike.

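The parent was found by panning a naive human phage display library on the peptide. In library AAYL52, one, two or three CDR residues were substituted; doubles and triples were drawn at random. In AlphaSeq, yeast of one mating type display the scFv and yeast of the other type display the target. Pairs that bind mate more often; barcode pairs of the diploids are counted by sequencing. Read counts were normalised to the haploid input and turned into Kd by a linear fit to BCL2-family pairs of known affinity, for each replicate. The assay was run in three technical replicates.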

Each scFv is VH, three GGGGS repeats, VL, as in the parent Ab-95, and differs from it in the CDRs of the light chain only.
VH: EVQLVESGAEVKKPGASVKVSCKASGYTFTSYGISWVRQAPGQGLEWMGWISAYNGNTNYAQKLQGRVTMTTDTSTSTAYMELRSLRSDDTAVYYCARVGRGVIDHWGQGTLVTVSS
VL: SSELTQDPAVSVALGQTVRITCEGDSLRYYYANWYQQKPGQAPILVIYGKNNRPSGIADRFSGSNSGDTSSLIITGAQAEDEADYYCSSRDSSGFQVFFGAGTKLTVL

Changes read parent residue, position, new residue, counted from the first residue of the VL shown. All variants listed here change G49 of the VL, counted from its first residue. The Kd shown is the geometric mean over detected replicates; a lower Kd is a better binder. "not detected" means that the variant was in the library but no mating with the target was seen in any replicate; the authors take this as a sign of poor binding, and no number exists. Entries are sorted by rising average, undetected variants last. Nonspecific signal, from three strains lacking the peptide, appeared in 28% of pairings of library AAYL52, centred on 8.2 µM (5% of these signals below 800 nM); values are not corrected for it. The control count says in how many pairings with the empty strains this scFv gave a signal.

changes,Kd (apparent),seen in,control signals
D25P/G49V/N52C,320 nM,3/3,4/9
G49Y/R90L/S93C,820 nM,2/3,2/9
G49N/P54G/S92Y,990 nM,3/3,2/9
G49Y/S93W/F98S,1.1 µM,1/3,0/9
G24M/G49S/F98G,1.2 µM,3/3,5/9
S26F/G49V/V97C,2.0 µM,1/3,0/9
Y31T/G49M/G94N,2.1 µM,1/3,0/9
G49S/K50E/R53L,2.4 µM,2/3,4/9
G24K/N33L/G49D,2.6 µM,2/3,5/9
G49D/S55M/D91Y,2.9 µM,2/3,3/9
S26G/A32T/G49D,3.2 µM,2/3,5/9
D25Y/R28G/G49F,3.2 µM,2/3,1/9
G49W/S55V/R90V,3.3 µM,1/3,1/9
G49T/N51A/R90G,3.6 µM,1/3,4/9
G49Q/S88T/S89E,4.8 µM,1/3,0/9
G49E/F95K/F98G,5.0 µM,3/3,4/9
S26Y/G49A/S89A,5.2 µM,3/3,4/9
R28G/G49E/S93L,5.5 µM,1/3,1/9
D25R/G49Y/N52R,6.1 µM,1/3,5/9
G49V/Q96R,7.5 µM,2/3,4/9
L27A/G49W/S93G,7.5 µM,1/3,2/9
L27R/G49S/V97W,9.4 µM,1/3,4/9
E23R/G49V/R90T,10 µM,1/3,2/9
G49S/K50V/S89A,11 µM,3/3,4/9
L27S/G49F/D91K,11 µM,1/3,0/9
Y31H/G49P/S88T,12 µM,2/3,4/9
E23H/D25W/G49H,12 µM,1/3,1/9
G49L/D91V,13 µM,1/3,2/9
N33D/G49A/S88P,18 µM,1/3,3/9
N33H/G49I/D91S,20 µM,2/3,1/9
G49P/F95C/V97Y,20 µM,1/3,1/9
G49Q/S89V/S93E,21 µM,1/3,3/9
Y31Q/G49L/Q96Y,22 µM,1/3,2/9
Y30L/G49Y/R90T,22 µM,1/3,2/9
G49A/S55I/Q96M,26 µM,2/3,3/9
L27F/G49T/S88W,28 µM,1/3,4/9
S26P/Y31T/G49V,29 µM,2/3,3/9
R28P/G49K/N52V,30 µM,2/3,4/9
G49K/R53H/V97T,31 µM,2/3,3/9
L27Q/Y31Q/G49W,33 µM,3/3,2/9
E23C/G49F/Q96G,170 µM,2/3,2/9
G49R/G94R,not detected,0/3,1/9
G49C/P54R/G94K,not detected,0/3,2/9
G49C/R53F/S88R,not detected,0/3,1/9
Y31D/N33F/G49L,not detected,0/3,2/9
G49Y/S89V/S92G,not detected,0/3,2/9
N33M/G49T/R90V,not detected,0/3,2/9
G49R/R53V/F95Y,not detected,0/3,2/9
G49A/N51Y/F98Y,not detected,0/3,1/9

Excerpt, the final 8 entries:

changes,Kd (apparent),seen in,control signals
G49R/G94R,not detected,0/3,1/9
G49C/P54R/G94K,not detected,0/3,2/9
G49C/R53F/S88R,not detected,0/3,1/9
Y31D/N33F/G49L,not detected,0/3,2/9
G49Y/S89V/S92G,not detected,0/3,2/9
N33M/G49T/R90V,not detected,0/3,2/9
G49R/R53V/F95Y,not detected,0/3,2/9
G49A/N51Y/F98Y,not detected,0/3,1/9

Parent in this assay: reference entry 200 nM, copy in this library 180 nM.

From the AlphaSeq antibody data of Engelhart et al. 2022 (doi:10.1038/s41597-022-01779-4), copy in the FLAb collection.